# Measured values reported in US12168763B2, “Microorganisms and methods for reducing bacterial contamination” (Melio Peptide Systems Inc., priority 2020, dated 2024).
# System: L. fermentum NCCB 46038
# Assay: Soft-agar overlay screen of peptide-expressing yeast (BY4742)
substance,measurement,value
Pediocin PA-1 from [Pediococcus acidilactici],"Inhibition, L. fermentum NCCB 46038",−
